This is a selection; strong and weak results do not stand in their true shares. Some structures show a salt or complex split into parts, the way the source records it. Activity calls are given as the source filed them. Cut-off read from the data, not from the text of the source: active = fluorescence above about 47; inactive = the rest.
assay: green autofluorescence of compounds with avidin beads – biophysical, 488/530 nm, flow cytometry, artefact control, profiling panel (AID 1775); details: compound fluorescence 488/530 nm, at 10 µM, hits give high values

Compound | fluorescence (KMESF)
COc1ccccc1OP(C)(=O)Nc1ccccc1Br (stereo unspecified) | inactive: 28
CCc1ccc(OP(C)(=O)Nc2cccnc2)cc1 (stereo unspecified) | inactive: 12
CP(=O)(Oc1ccccc1)N1CCOC1=O (stereo unspecified) | inactive: 8
O=C(OCCCN1CCCC1)C(O)(c1ccccc1)C1CCCCC1 (stereo unspecified) | inactive: 17
COc1ccc(OP(C)(=O)Nc2ccc(Br)cc2)cc1 (stereo unspecified) | inactive: 9
CCN(CC)CC(O)COC(=O)C(O)(c1ccccc1)C1CCCCC1 (stereo unspecified) | inactive: 6
CP(=O)(OC12CC3CC(CC(C3)C1)C2)OC12CC3CC(CC(C3)C1)C2 | inactive: 12
CCOC(=O)c1ccc(NP(C)(=O)Oc2ccc(Cl)cc2)cc1 (stereo unspecified) | inactive: 2
CP(=O)(OCCOc1ccccc1)OCCOc1ccccc1 | inactive: 14
CP(=O)(Nc1ccc(Cl)cc1Cl)Oc1ccccc1 (stereo unspecified) | inactive: 9
Cc1nc2ccc3ccccc3c2o1.O=[N+]([O-])c1cc([N+](=O)[O-])c(O)c([N+](=O)[O-])c1 | inactive: 11
COc1ccc(OP(C)(=O)Nc2ccccc2Br)cc1 (stereo unspecified) | inactive: 13
COc1ccccc1OP(C)(=O)Nc1ccc(C)c(C)c1 (stereo unspecified) | inactive: 6
Cc1cc(C)cc(OP(C)(=O)Nc2cccc(C(F)(F)F)c2)c1 (stereo unspecified) | inactive: 13
CCc1ccc(OP(C)(=O)O)cc1 | inactive: 32
COc1ccccc1OP(C)(=O)Nc1ccc(C)cc1C (stereo unspecified) | inactive: 17
CP(=O)(Nc1ccccn1)Oc1ccccc1 (stereo unspecified) | inactive: 9
O=[N+]([O-])c1cc([N+](=O)[O-])c(Nc2ccccn2)c([N+](=O)[O-])c1 | inactive: 10
Cc1c(NP(C)(=O)Oc2ccc(C(C)C)cc2)c(=O)n(-c2ccccc2)n1C (stereo unspecified) | inactive: 11
CN(C)CCOC(=O)C(O)(c1ccccc1)C1CCCC1 (stereo unspecified) | inactive: 4
COc1ccc(OP(C)(=O)Nc2ccccn2)cc1 (stereo unspecified) | inactive: 4

Compound | fluorescence (KMESF)
COc1ccccc1OP(C)(=O)Nc1ccc(Br)cc1 (stereo unspecified) | inactive: 35
COc1ccc2c(c1O)-c1c(O)c(OC)cc3c1[C@H](C2)[N+](C)(C)CC3.O=[N+]([O-])c1cc([N+](=O)[O-])c([O-])c([N+](=O)[O-])c1[O-] | inactive: 10
O=C(OCCN1CCN(CCOCc2ccccc2)CC1)C(O)(c1ccccc1)c1ccccc1 | inactive: 5
O=C(OC1CN2CCC1CC2)c1ccc([N+](=O)[O-])cc1 (stereo unspecified) | inactive: 8
CC(C)c1ccc(OP(C)(=O)Nc2ccc(SC(F)(F)F)cc2)cc1 (stereo unspecified) | inactive: 3
CP(=O)(Nc1ccccc1F)Oc1ccccc1 (stereo unspecified) | inactive: 9
CCCCCOc1ccc(NP(C)(=O)Oc2ccc(Cl)cc2Cl)cc1 (stereo unspecified) | inactive: 6
CP(=O)(Nc1ccccc1)Oc1ccc(F)cc1 (stereo unspecified) | inactive: 37
COc1ccc(OP(C)(=O)Nc2ccc(SC(F)(F)F)cc2)cc1 (stereo unspecified) | inactive: 8
CCOC(=O)c1ccc(NP(C)(=O)Oc2ccc(F)cc2)cc1 (stereo unspecified) | inactive: 5
Cc1cc(-c2cccc3ccccc23)c(C)cn1.O=[N+]([O-])c1cc([N+](=O)[O-])c(O)c([N+](=O)[O-])c1 | inactive: 20
O=[N+]([O-])c1cc([N+](=O)[O-])c(NCC2CCS(=O)(=O)C2)c([N+](=O)[O-])c1 (stereo unspecified) | inactive: 8
O=[N+]([O-])c1ccc(OP2(=O)COCCO2)cc1 (stereo unspecified) | inactive: 7
COc1ccc(NP(C)(=O)Oc2ccccc2OC)cc1 (stereo unspecified) | inactive: 5
CN(C)CCOC(=O)C(O)(c1ccccc1)C1CCCCC1 (stereo unspecified) | inactive: 39
COc1ccc(OP(C)(=O)Nc2cccc(Br)c2)cc1 (stereo unspecified) | inactive: 33
Cc1ccccc1NP(C)(=O)Nc1ccccc1C | inactive: 16
CP(=O)(Nc1ccc2c(c1)OCCO2)Oc1ccccc1 (stereo unspecified) | inactive: 18
CCOP(C)(=S)SCC(=O)NC(C)(CC)C(=O)O (stereo unspecified) | inactive: 15
CP(=O)(Nc1ccc(SC(F)(F)F)cc1)Oc1ccc(F)cc1 (stereo unspecified) | inactive: 6

— PubChem BioAssay AID1775 (NMMLSC, 2009)
